A word on the IC50: it is the concentration that inhibits the measured activity by half.

Sequences of proteins named here, by UniProt entry; tags and fusion partners are left off.
UniProt P51531, whole entry: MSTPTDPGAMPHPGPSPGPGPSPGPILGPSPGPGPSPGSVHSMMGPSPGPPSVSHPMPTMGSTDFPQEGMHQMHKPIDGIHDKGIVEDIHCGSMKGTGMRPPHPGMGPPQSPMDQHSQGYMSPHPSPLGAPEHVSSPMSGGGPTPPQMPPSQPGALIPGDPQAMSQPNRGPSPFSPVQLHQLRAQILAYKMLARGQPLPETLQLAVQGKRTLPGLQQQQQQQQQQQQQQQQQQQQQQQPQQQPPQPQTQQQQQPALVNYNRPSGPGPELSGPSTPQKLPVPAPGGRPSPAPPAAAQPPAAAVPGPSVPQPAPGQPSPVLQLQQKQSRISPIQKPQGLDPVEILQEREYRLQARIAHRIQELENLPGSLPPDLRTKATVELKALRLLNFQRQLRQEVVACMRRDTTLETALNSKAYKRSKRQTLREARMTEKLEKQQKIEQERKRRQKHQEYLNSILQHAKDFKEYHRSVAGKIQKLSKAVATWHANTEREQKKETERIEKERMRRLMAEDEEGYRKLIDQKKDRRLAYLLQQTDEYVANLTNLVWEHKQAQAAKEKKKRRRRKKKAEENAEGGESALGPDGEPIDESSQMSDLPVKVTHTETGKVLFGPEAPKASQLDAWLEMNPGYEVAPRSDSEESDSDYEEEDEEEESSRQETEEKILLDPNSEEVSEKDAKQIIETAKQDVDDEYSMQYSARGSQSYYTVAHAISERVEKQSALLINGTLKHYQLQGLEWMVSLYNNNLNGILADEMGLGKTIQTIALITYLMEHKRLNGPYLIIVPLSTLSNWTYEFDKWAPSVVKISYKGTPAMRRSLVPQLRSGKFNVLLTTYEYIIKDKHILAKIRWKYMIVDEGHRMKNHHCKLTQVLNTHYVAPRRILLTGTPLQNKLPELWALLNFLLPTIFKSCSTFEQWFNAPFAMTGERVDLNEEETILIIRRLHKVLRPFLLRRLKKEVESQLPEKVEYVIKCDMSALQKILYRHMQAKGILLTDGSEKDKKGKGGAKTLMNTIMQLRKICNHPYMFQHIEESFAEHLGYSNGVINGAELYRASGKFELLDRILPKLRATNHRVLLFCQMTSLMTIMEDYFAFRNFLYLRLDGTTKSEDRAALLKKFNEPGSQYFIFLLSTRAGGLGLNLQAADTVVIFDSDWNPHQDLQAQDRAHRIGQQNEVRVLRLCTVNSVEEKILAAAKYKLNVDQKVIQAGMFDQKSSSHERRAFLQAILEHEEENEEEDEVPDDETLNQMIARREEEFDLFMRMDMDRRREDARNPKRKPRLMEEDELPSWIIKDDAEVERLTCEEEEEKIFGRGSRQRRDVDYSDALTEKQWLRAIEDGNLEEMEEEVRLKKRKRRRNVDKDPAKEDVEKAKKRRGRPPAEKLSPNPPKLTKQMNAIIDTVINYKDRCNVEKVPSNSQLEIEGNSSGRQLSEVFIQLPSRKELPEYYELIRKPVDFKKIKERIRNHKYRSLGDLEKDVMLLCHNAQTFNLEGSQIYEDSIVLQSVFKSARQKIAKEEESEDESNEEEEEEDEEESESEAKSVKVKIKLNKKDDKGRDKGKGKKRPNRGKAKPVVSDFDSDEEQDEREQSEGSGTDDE
UniProt P51532, whole entry: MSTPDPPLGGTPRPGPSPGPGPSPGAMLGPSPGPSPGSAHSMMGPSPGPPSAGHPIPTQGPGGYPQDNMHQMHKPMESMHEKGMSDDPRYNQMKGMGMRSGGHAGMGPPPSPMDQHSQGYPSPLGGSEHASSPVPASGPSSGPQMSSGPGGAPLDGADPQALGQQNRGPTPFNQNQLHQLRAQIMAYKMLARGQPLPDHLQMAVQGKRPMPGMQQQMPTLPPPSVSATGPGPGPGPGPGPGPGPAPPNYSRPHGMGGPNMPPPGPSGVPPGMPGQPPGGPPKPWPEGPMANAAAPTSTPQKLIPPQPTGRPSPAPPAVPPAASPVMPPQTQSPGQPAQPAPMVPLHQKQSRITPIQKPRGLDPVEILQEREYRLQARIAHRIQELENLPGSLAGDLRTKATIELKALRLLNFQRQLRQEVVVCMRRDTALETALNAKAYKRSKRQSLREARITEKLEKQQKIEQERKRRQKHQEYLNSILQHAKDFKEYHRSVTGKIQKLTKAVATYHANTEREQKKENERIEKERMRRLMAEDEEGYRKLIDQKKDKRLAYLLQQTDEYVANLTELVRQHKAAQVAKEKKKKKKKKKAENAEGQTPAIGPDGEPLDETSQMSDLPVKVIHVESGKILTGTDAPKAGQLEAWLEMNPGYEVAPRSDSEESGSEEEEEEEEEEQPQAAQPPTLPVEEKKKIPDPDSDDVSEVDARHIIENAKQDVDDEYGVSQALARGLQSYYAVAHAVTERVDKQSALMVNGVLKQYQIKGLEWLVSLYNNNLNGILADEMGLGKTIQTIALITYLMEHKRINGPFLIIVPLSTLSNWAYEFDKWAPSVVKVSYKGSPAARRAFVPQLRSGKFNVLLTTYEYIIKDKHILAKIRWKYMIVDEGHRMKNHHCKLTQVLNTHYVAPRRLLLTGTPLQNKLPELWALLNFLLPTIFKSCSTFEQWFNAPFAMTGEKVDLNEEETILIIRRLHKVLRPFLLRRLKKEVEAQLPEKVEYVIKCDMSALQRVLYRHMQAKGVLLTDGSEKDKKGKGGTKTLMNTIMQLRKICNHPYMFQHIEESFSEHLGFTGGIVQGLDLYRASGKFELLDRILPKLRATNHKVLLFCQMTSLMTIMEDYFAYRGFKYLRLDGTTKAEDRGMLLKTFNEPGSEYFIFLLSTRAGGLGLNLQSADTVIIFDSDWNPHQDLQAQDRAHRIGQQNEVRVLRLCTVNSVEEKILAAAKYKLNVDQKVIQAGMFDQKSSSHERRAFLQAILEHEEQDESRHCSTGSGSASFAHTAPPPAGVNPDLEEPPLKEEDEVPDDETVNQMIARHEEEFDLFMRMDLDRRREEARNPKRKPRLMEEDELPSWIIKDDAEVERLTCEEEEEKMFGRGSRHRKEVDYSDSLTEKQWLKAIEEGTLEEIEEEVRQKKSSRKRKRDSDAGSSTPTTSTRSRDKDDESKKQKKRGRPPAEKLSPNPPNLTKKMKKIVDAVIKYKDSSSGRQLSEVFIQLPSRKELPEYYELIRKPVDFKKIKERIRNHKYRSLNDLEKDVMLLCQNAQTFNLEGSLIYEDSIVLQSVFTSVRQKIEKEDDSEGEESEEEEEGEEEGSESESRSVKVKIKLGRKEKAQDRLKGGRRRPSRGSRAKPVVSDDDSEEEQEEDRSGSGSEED

One test has as its target BRM (Homo sapiens, UniProt P51531). Put plainly: Immunofluorescence assay for BRM degradation in SW1573 cells. On the procedure: (§1) Example B-2: Immunofluorescence Assay for BRM and BRG1 Degraders
(§2) SW1573 cells were seeded at 3000 cells/well in 384 well plates. The next day, compounds were added using an Echo dispenser. After 20 hours of incubation with compound, cells were fixed with 4% formaldehyde then permeabilized with 0.2% Triton X-100 and blocked with 10% FCS. Fixed and permeabilized cells were treated overnight at 4° C. with either BRM primary antibody (Cell signaling Cat #11966) or BRG primary antibody (Abcam, ab 110641). Finally, cells were treated with fluorescently labeled secondary antibodies for 1 hr (Donkey anti-Rabbit IgG AF488, Life Technologies, A21206) and Hoechst nuclear stain (#H3569) was added for 30 minutes. Cells were washed with PBS in between each step and before imaging on an Opera Phenix microscope (Perkin Elmer). Harmony software (Perking Elmer) was used to quantify the mean nuclear signaling intensity of BRM or BRG signaling per cell in each well. Dose responses were determined from the concentration dependent response of mean nuclear signal intensity with data normalized to a known degrader control. Dose response curves were fit to a floating maximum to allow for calculation of the Dmax.
(§3) Note that, in Table 5, the “Compound Number” corresponds to that used in Table 1. […]

The next test addresses BRG1 (Homo sapiens, UniProt P51532). Put plainly: Immunofluorescence assay for BRG1 degradation in SW1573 cells. On the procedure: as §1, §2, §3
Where [1] appears, read: 20 hours incubation, normalized to a known degrader control.

Turning to `Nc1nnc(-c2ccccc2O)cc1N1CC2CCC(C1)N2c1ccnc(C#CCN2CC[C@@H]3C[C@H]2C(O)C3O)c1` (stereo partly shown), the “BRM IF Degradation Sinf (%)” value on BRM (setting [1]) is “E (E indicates −30%-−70%)”. Moreover, the IC50 at BRM (read-out: BRM IF Degradation IC50, 20 hours incubation, immunofluorescence mean nuclear signal) is 0.01 to 0.1 µM; at BRG1 (read-out: BRG1 IF Degradation IC50, 20 hours incubation, immunofluorescence mean nuclear signal), 0.01 to 0.1 µM. Besides, the “BRG1 IF Degradation Sinf (%)” value on BRG1 (setting [1]) is “E (E indicates −30%-−70%)”.

(Values after US11993599B2, “Therapeutic compounds” (Genentech, Inc., priority 2021, dated 2024).)
